{"sequences": {"note": "Protein sequences, listed by entry. Tags and fused reporters are not part of them.", "UniProt P19784, whole entry": "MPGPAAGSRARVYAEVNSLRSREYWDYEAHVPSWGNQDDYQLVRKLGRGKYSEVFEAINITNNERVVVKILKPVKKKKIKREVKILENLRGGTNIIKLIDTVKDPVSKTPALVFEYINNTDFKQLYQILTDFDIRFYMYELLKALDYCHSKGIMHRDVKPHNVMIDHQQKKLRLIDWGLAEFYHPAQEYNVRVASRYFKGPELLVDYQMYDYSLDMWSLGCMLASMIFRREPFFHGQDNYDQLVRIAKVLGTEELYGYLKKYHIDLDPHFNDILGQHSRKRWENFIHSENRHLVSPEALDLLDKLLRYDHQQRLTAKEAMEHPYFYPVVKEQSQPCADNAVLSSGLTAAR", "UniProt P67870, whole entry": "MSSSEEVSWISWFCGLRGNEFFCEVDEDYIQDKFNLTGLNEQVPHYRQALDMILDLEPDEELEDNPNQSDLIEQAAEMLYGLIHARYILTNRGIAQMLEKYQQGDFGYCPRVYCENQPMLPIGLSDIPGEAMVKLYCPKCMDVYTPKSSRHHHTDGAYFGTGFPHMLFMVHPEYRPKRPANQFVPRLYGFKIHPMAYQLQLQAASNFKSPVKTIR", "UniProt P68400, whole entry": "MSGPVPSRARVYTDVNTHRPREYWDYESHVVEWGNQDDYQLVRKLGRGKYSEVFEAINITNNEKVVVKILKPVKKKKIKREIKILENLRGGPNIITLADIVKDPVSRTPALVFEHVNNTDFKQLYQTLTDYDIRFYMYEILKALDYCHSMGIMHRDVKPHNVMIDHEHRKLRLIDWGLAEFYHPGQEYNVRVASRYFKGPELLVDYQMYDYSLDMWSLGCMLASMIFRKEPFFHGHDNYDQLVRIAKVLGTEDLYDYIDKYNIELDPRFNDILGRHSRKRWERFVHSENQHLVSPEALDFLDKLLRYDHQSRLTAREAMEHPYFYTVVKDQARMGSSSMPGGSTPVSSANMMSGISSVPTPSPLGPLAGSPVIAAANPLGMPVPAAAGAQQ"}, "source": "ChEMBL document CHEMBL3882247", "about": "“Use of dibenzofuranone derivatives to inhibit kinases” (2013)", "target": "Casein kinase II (Homo sapiens, UniProt P19784+P67870+P68400)", "experiment": "Inhibition of CK2 (unknown origin) using REEETEEE as substrate after 15 mins in presence of [gamma-32P]-ATP", "assay_type": "protein-complex assay", "data": [{"smiles": "Cc1cc(O)c2c(c1)C(=O)c1cc(O)cc(O)c1C2=O", "note": "[EMODIN]", "values": [{"measurement": "IC50", "value": 1000, "unit": "nM"}]}]}
